This is a selection; strong and weak results do not stand in their true shares. Records with an inconclusive call do not appear. The source made the active and inactive calls. Calls follow the shape of the full dose curve; cell line not stated here.
Assay: qHTS for Antagonists of gsp, the Etiologic Mutation Responsible for Fibrous Dysplasia/McCune-Albright Syndrome: qHTS; also: nearly all actives have a fitted effect of over 65% in size
Conditions: gsp-mutant cells, cAMP HTRF, 30 min; at 76.9 µM (top of the series) unless noted
% is scaled to controls: 0 for no effect and ±100 for the full control effect.

| SMILES | activity change, negative = inhibition |
| --- | --- |
| Cc1cc(N(CCCl)CCCl)ccc1C=O | inactive: 8.17% |
| CCCN1CCC(Nc2cc(OC)cc(OC)c2)CC1 | inactive: -21.7% |
| c1ccc(CN2CCC(Nc3ccccc3)CC2)cc1 | inactive: 3.69% |
| CN(C)C1(CNC(=O)c2cccc(C#N)c2)CCCCC1 | inactive: 8.5% |
| CCOC(=O)C(CC)C1=NC(C)(C)Cc2ccccc21.O=[N+]([O-])c1cc([N+](=O)[O-])c(O)c([N+](=O)[O-])c1 (configuration not stated) | inactive: -15.3% |
| CC(C)(C)OC(=O)N1CCC(N(C(=O)c2ccccc2)c2ccc(Cl)cc2)CC1 | inactive: -18.2% |
| N#Cc1ccc(C(=O)NCC2(N3CCCCC3)CCCCC2)cc1 | inactive: -15.3% |
| O=C(O)c1cccc(Nc2c([N+](=O)[O-])cc([N+](=O)[O-])cc2[N+](=O)[O-])c1 | inactive: -12.6% |
| O=C(OC1CN2CCC1CC2)C1c2ccccc2C=Cc2ccccc21 (configuration not stated) | inactive: 10.9% |
| CCc1cc(C(=O)NCC2(N3CCCCC3)CCCCC2)sc1C | inactive: 5.72% |
| N/C(=N\O)c1c(N)no[n+]1[O-] | inactive: 4.58% [at 15.4 µM] |
| CCOC(=O)N1CCC(Nc2ccc(C)cc2)CC1 | inactive: -5.31% |
| COc1ccc(C(=O)NCC2(N3CCOCC3)CCCCC2)cc1OC | inactive: 6.29% |
| O=C(NCC1(N2CCOCC2)CCCCC1)c1cc(Br)ccc1Cl | inactive: -4.93% |
| COc1cc(C(=O)NCC2(N3CCOCC3)CCCCC2)cc(OC)c1C | inactive: -13.8% |
| CN1CCC(Nc2ccc(Cl)cc2)CC1 | inactive: 4.2% |
| CCC(CO)(C(=O)OC1CN2CCC1CC2)c1ccccc1 (configuration not stated) | inactive: 5.65% |
| COc1cccc(C(=O)N(c2cc(C)cc(C)c2)C2CCN(C(=O)OC(C)(C)C)CC2)c1 | inactive: -20.5% |
| CCCOc1ccc(C(=O)NCC2(N(C)C)CCCCC2)cc1 | inactive: 13.6% |
| O=C(O)C1(Nc2ccccc2)CCN(Cc2ccccc2)CC1 | inactive: 9.87% |
| CC(C)(C)OC(=O)N1CCC(Nc2ccccc2)CC1 | inactive: -3.21% |
| CN1CCC(Nc2ccc(F)c(Cl)c2)CC1 | inactive: -0.82% |
| CCOc1ncccc1C(=O)NCC1(N2CCOCC2)CCCCC1 | inactive: -4.42% |
| Cn1c(=O)[nH]cc(N(CCCl)CCCl)c1=O | inactive: 15.1% |
| CN(C)c1ccc(C(=O)NCC2(N3CCCCC3)CCCCC2)cc1 | inactive: 6.45% |
| O=C(NCC1(N2CCCCC2)CCCCC1)c1ccco1 | inactive: 18% |

| SMILES | activity change, negative = inhibition |
| --- | --- |
| CCN1CCC(Nc2cccc(F)c2)CC1 | inactive: 10.8% |
| Cc1ccccc1NC1(C#N)CCN(Cc2ccccc2)CC1 | inactive: 10.7% |
| Cc1ccc(NC2(C#N)CCN(Cc3ccccc3)CC2)cc1 | inactive: -2.7% |
| Fc1ccccc1NC1CCN(Cc2ccccc2)CC1 | inactive: 5.41% |
| Cc1ccc(C(=O)NCC2(N3CCCCC3)CCCCC2)o1 | inactive: 14.8% |
| COc1cc(OC)cc(C(=O)NCC2(N3CCCCC3)CCCCC2)c1 | inactive: 4.12% |
| CC(=O)N(c1ccccc1)C1CCNCC1 | inactive: 5.9% |
| COc1cc(C(=O)NCC2(N(C)C)CCCCC2)ccc1OC(F)F | inactive: 3.76% |
| CCOC(=O)N1CCC(Nc2cccc(C)c2)CC1 | inactive: -1.48% |
| COc1ccc(NC2CCN(CCc3ccccc3)CC2)c(OC)c1 | inactive: -9.32% |
| CCOC(=O)N1CCC(Nc2ccc(F)cc2)CC1 | inactive: -3.53% |
| O=C(NCC1(N2CCCCC2)CCCCC1)c1ccc(F)cc1 | inactive: 13.5% |
| O=P1(N(CCCl)CCCl)SCCCS1 | inactive: 7.68% |
| CCCCOc1ccc(C(=O)NCC2(N3CCOCC3)CCCCC2)cc1 | inactive: -0.511% |
| CCOc1ccc(C)cc1CN(CCCl)CCCl | inactive: -12.9% |
| O=C1CCN(Cc2ccccc2)CC1 | inactive: 9.02% |
| CCOC(=O)N1CCC(Nc2ccc(OC)cc2)CC1 | inactive: 20.9% |
| O=C1C(O)=C([N+](=O)[O-])C(=O)C(O)=C1[N+](=O)[O-] | inactive: 6.37% |
| O=C(OC1CN2CCC1CC2)C1c2ccccc2Oc2ccccc21 (configuration not stated) | inactive: -0.557% |
| O=C(NCC1(N2CCCCC2)CCCCC1)c1ccc(Cl)s1 | inactive: -6.09% |
| N#CC1(Nc2ccccc2)CCN(Cc2ccccc2)CC1 | inactive: -5.86% |
| O=C(NCC1(N2CCOCC2)CCCCC1)c1cc2ccccc2o1 | inactive: -9.79% |
| O=C(NCC1(N2CCCCC2)CCCCC1)c1ccc(Cl)nc1 | inactive: 5.8% |
| Cc1cccc(NC2(C#N)CCN(Cc3ccccc3)CC2)c1 | inactive: -16.3% |
| CSc1ccccc1C(=O)NCC1(N2CCCCC2)CCCCC1 | inactive: -3.49% |
| O=C(NCC1(N2CCCCC2)CCCCC1)c1cccs1 | inactive: 5.39% |

| SMILES | activity change, negative = inhibition |
| --- | --- |
| O=C(NCC1(N2CCCCC2)CCCCC1)c1ccc(=O)[nH]c1 | inactive: 1.39% |
| CC(C)(C)OC(=O)N1CCC(N(C(=O)c2ccccc2)c2ccc(F)cc2)CC1 | inactive: 3.23% |
| COc1ccc(C(=O)NCC2(N3CCCCC3)CCCCC2)c(OC)c1OC | inactive: 11.8% |
| CCCOc1ccc(C(=O)NCC2(N(C)C)CCCCC2)cc1OC | inactive: 8.76% |
| O=C(NCC1(N2CCCCC2)CCCCC1)c1cncc(Br)c1 | inactive: 0.154% |
| CN1CCC(Nc2cccc(F)c2)CC1 | inactive: 6.85% |
| O=C(OC1CN2CCC1CC2)c1ccc([N+](=O)[O-])cc1 (configuration not stated) | inactive: 8.52% |
| O=C(NCC1(N2CCOCC2)CCCCC1)c1cc(F)c(F)cc1Cl | inactive: 0.223% |
| COc1cc(OC)c(C(=O)NCC2(N(C)C)CCCCC2)cc1OC | inactive: 9.44% |
| O=[N+]([O-])c1cc([N+](=O)[O-])c(OC2CCCCC2O)c([N+](=O)[O-])c1 (configuration not stated) | inactive: -26.3% |
| CN(C)c1cccc(C(=O)NCC2(N3CCCCC3)CCCCC2)c1 | inactive: 8.1% |
| COc1ccc(CN(CCCl)CCCl)cc1Cl | inactive: 5.47% |
| CC(C)c1ccc(NC2CCN(C(=O)OC(C)(C)C)CC2)cc1 | inactive: -5.91% |
| CN1CCN(CCOC(=O)C(O)(c2ccccc2)c2ccccc2)CC1 | inactive: 0.604% |
| CC(C)c1ccc(C(=O)NCC2(N3CCOCC3)CCCCC2)cc1 | inactive: 1.16% |
| COc1ccc(NC2CCN(C(=O)OC(C)(C)C)CC2)cc1 | inactive: 1.68% |
| COc1cc(C(=O)NCC2(N3CCCCC3)CCCCC2)ccc1OC(F)F | inactive: 13.1% |
| O=C(NCC1(N2CCOCC2)CCCCC1)c1cc(=O)[nH]c2ccccc12 | inactive: 4.52% |
| O=C(NCC1(N2CCCCC2)CCCCC1)c1cccc(C(F)(F)F)c1 | inactive: 9.3% |
| O=[N+]([O-])c1cc([N+](=O)[O-])c(NCC2CCS(=O)(=O)C2)c([N+](=O)[O-])c1 (configuration not stated) | inactive: -4.19% |
| O=C(NCC1(N2CCCCC2)CCCCC1)c1cccc([N+](=O)[O-])c1 | inactive: 4.55% |
| CSc1ccc(C(=O)NCC2(N3CCOCC3)CCCCC2)cc1 | inactive: 1.28% |
| N#CC1(Nc2ccccc2)CCN(CCc2ccccc2)CC1 | inactive: 1.82% |
| CCN1CCC(Nc2ccc(Cl)cc2)CC1 | inactive: 13.2% |
| O=C(NCC1(N2CCCCC2)CCCCC1)c1ccc(OC(F)F)cc1 | inactive: 10.7% |
